{
  "sequences": {"note": "Protein sequences, listed by entry. Tags and fused reporters are not part of them. Residues count along the entry.", "UniProt P06276, 29-602": "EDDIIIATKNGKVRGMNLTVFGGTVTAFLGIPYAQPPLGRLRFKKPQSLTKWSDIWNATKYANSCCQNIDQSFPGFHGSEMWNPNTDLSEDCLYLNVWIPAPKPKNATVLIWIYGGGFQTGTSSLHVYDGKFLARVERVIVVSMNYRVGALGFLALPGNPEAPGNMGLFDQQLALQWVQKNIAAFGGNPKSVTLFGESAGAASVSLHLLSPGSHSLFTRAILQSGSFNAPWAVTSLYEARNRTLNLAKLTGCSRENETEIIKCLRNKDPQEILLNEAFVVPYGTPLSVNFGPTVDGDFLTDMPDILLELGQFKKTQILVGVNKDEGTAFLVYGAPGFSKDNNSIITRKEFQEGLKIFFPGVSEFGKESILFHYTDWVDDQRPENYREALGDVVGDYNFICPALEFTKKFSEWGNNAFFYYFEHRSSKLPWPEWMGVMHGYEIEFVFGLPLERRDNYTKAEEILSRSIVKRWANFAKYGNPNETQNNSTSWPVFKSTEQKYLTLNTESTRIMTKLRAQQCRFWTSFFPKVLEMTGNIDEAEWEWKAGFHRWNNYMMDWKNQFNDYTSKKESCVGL"},
  "source": "paper PMC6017698",
  "about": "(Molecules : A Journal of Synthetic Chemistry and Natural …, 2018)",
  "target": "human serum BChE (Homo sapiens, UniProt P06276)",
  "assay_type": "biochemical",
  "conditions": "mean ± SEM of at least three experiments, each in duplicate, read-out: hBChE IC50",
  "data": [
    {"molecule": "CC1=CC2Cc3nc4cc(Cl)ccc4c(N)c3C(C1)C2", "note": "(stereo not shown) [huprine Y, reference compound]", "values": [
      {"measurement": "IC50", "result": "180 ± 10", "unit": "nM"}
    ]}
  ]
}
